Experimental data published in patent US8066985B2, “Reovirus for the treatment of cellular proliferative disorders” (Oncolytics Biotech Inc., priority 1999, dated 2011).

System: Ras-transformed cells
Assay: Interferon β effect on reovirus replication
Format: cell-based

B1: Interferon β: known to induce PKR expression (protein, UniProt P01574 22-187, looked up)
Interferon beta: MSYNLLGFLQRSSNFQCQKLLWQLNGRLEYCLKDRMNFDIPEEIKQLQQFQKEDAALTIYEMLQNIFAIFRQDSSSTGWNETIVENLLANVYHQINHLKTVLEEKLEKEDFTRGKLMSSLHLKRYYGRILHYLKAKEYSHCAWTIVRVEILRNFYFINRLTGYLRN
reovirus replication: significantly reduce reovirus replication
